The source of these data is patent US8003627B2, “Urokinase inhibitors” (Universiteit Antwerpen, priority 2005, dated 2011).

What all share (format): biochemical
One assay concerns the target uPA (Homo sapiens, UniProt P00749). Also on record: purchased Sigma-Aldrich. The note with it: apparent second order rate constant, 250 μM substrate.
In another assay the target is FXa (Homo sapiens, UniProt P00742). As to the kind of experiment: Selectivity: FXa inhibition, chromogenic substrate S-2772. The note with it: at 250 μM; read-out: % inhibition at given concentration, FXa.
For a further assay, the target named is thrombin (Homo sapiens, UniProt P00734). Nature of the assay: Selectivity: thrombin inhibition, chromogenic substrate S-2366. The note with it: for selectivity ratio / selectivity index (IC50 thrombin/IC50 uPA), figures between brackets: thrombin vs uPA; for inhibition at 250 µM: read-out: % inhibition at given concentration, Thrombin.
The target in the next assay is tPA (Homo sapiens, UniProt P00750). As to the kind of experiment: Selectivity: tPA inhibition, chromogenic substrate S-2288. The conditions noted are these: for selectivity ratio / selectivity index (IC50 tPA/IC50 uPA), figures between brackets: tPA vs uPA; for inhibition at 250 µM: read-out: % inhibition at given concentration, tPA.
A further assay addresses T1, plasmin (Homo sapiens, UniProt P00747).
T1 construct: uPA mediates the proteolytic cleavage of plasminogen to give plasmin
Nature of the assay: Selectivity: plasmin inhibition, chromogenic substrate S-2366. The conditions noted are these: for selectivity ratio / selectivity index (IC50 plasmin/IC50 uPA), figures between brackets: plasmin vs uPA; for inhibition at 250 µM: read-out: % inhibition at given concentration, Plasmin.

As for `CC(C)c1ccc(C(C)C)c(S(=O)(=O)NC(Cc2ccc(NC(=N)N)cc2)P(=O)(Oc2ccccc2)Oc2ccccc2)c1C(C)C` (stereo not shown) [Compound 7f, Diphenyl 1-(2,3,6-tri-isopropylbenzenesulfonyl)amino-2-(4-guanidinophenyl)-ethanephosphonate], at uPA, the “kapp (M^−1 · s^−1) uPA” value came out at 1600 M⁻¹ s⁻¹.
`CCOC(=O)NC(Cc1ccc(NC(=N)N)cc1)P(=O)(Oc1ccccc1)Oc1ccccc1` (stereo not shown) [Compound 35c, Ethyl 1-(diphenoxyphosphoryl)-2-(4-guanidinophenyl)ethylcarbamate]: the inhibition at 250 µM on FXa was 62%. Further, the “selectivity ratio / selectivity index (IC50 thrombin/IC50 uPA), figures between brackets” value at thrombin is given as “(475)”. Moreover, the “selectivity ratio / selectivity index (IC50 tPA/IC50 uPA), figures between brackets” value at tPA is “(7125)”. The “selectivity ratio / selectivity index (IC50 plasmin/IC50 uPA), figures between brackets” value on plasmin was “(2000)”.
As for `Cc1ccccc1S(=O)(=O)NC(Cc1ccc(NC(=N)N)cc1)P(=O)(Oc1ccccc1)Oc1ccccc1` (stereo not shown) [Compound 7d, Diphenyl 1-(o-toluenesulfonylamino)-2-(4-guanidinophenyl)-ethanephosphonate], at uPA, the “kapp (M^−1 · s^−1) uPA” value is 19000 M⁻¹ s⁻¹.
Turning to `CCC(NC(=O)OCc1ccccc1)(c1ccc(C(=N)N)cc1)P(=O)(Oc1ccccc1)Oc1ccccc1` (stereo not shown) [Compound 8c, Diphenyl 1-(N-benzyloxycarbonylamino)-1-(4-amidinophenyl)propanephosphonate], the “kapp (M^−1 · s^−1) uPA” value on uPA stood at 140 M⁻¹ s⁻¹.
For the compound `COC(=O)NC(Cc1ccc(NC(=N)N)cc1)P(=O)(Oc1ccccc1)Oc1ccccc1` (stereo not shown) [Compound 35a, Methyl 1-(diphenoxyphosphoryl)-2-(4-guanidinophenyl)ethylcarbamate], on FXa, the inhibition at 250 µM was 57%. Also, the “selectivity ratio / selectivity index (IC50 thrombin/IC50 uPA), figures between brackets” value at thrombin is “(5355)”. Further, the “selectivity ratio / selectivity index (IC50 tPA/IC50 uPA), figures between brackets” value on tPA is given as “(7419)”. For the same compound, the “selectivity ratio / selectivity index (IC50 plasmin/IC50 uPA), figures between brackets” value on plasmin is given as “(4129)”.
Turning to `CNC(=O)NC(Cc1ccc(NC(=N)N)cc1)P(=O)(Oc1ccccc1)Oc1ccccc1` (stereo not shown) [Compound 39a, Diphenyl 2-(4-guanidinophenyl)-1-(3-methylureido)ethylphosphonate], the inhibition at 250 µM at FXa turned out to be 27%; at thrombin it was 42%; on tPA, 42%; at plasmin it was 15%.
Take “Diphenyl 1-(naphthalenesulfonylamino)-2-(4-guanidinophenyl)-ethanephosphonate [Compound 7e]”: the “kapp (M^−1 · s^−1) uPA” value on uPA amounted to 7300 M⁻¹ s⁻¹.
As to `N=C(N)Nc1ccc(CC(NC(=O)NCc2ccccc2)P(=O)(Oc2ccccc2)Oc2ccccc2)cc1` (stereo not shown) [Compound 39b, Diphenyl 1-(3-benzylureido)-2-(4-guanidinophenyl)ethylphosphonate], the inhibition at 250 µM at FXa came to 36%; on thrombin, 46%; on tPA it was 50%; at plasmin, 34%.
As to `CC(=O)NC(Cc1ccc(NC(=N)N)cc1)P(=O)(Oc1ccccc1)Oc1ccccc1` (stereo not shown) [Compound 41, Diphenyl 1-acetamido-2-(4-guanidinophenyl)ethylphosphonate], the inhibition at 250 µM at FXa was 37%.
In the case of `N=C(N)Nc1ccc(CC(N)P(=O)(Oc2ccccc2)Oc2ccccc2)cc1` (stereo not shown) [Compound 34d, Diphenyl 1-amino-2-(4-guanidinophenyl)ethylphosphonate], the inhibition at 250 µM on FXa worked out at 11%; at thrombin, 41%; at tPA, 32%; at plasmin it was 31%.
